Laboratory results reported in ChEMBL document CHEMBL1133648, “Synthesis, stability, antiviral activity, and protease-bound structures of substrate-mimicking constrained macrocyclic inhibitors of HIV-1 protease” (J Med Chem, 2000).

Test: Selective index is the ratio of CC10 to that of IC90
Assay type: functional
Method in brief: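 SI = CC₁₀ / IC₉₀. CC₁₀ is the highest noncytotoxic concentration in uninfected-cell cytotoxicity wells, counted by trypan blue exclusion after 6–7 days; counts below 90% of the cell-only control are treated as toxic. […] Cultures are run in duplicate.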

`CC(C)CN(C[C@@H](O)[C@H](Cc1ccccc1)NC(=O)O[C@H]1CCOC1)S(=O)(=O)c1ccc(N)cc1` showed an SI of 125.
